Tests used:
[1] = in vivo, cited from earlier work
[2] = human, in vivo
[3] = in vivo; cited from earlier work

CN1CC[C@]23c4c5ccc(O)c4O[C@H]2C(=O)CC[C@H]3[C@H]1C5 [Hydromorphone]
detection of hydromorphone by LC/MS/MS after an oral dose of hydrocodone ([1]; po): up to 4 days | detection of free drug in urine by LC/MS/MS after administration [1]: up to 4 days | Result (urine concentration) [2]: 214 ng/mL | dose eliminated as conjugated hydromorphone [3]: 36% | dose eliminated as free hydromorphone [3]: About 6%

Reference: patent US8067243B2 (priority 2008, dated 2011)
